Target: synaptic membrane proteins in SMPL Nanodiscs (immobilised on magnetic beads)
Test: ELISA; magnetic bead-based: SMPL Nanodiscs immobilised through the His tag of MSP on Dynabeads; PBS with 0.1% BSA and 25 mM imidazole; AβOs 1 h at 37°C; bound AβOs detected by NU2 antibody or through biotin (Vectastain) with colorimetric HRP substrate; nonspecific binding measured with excess ATA; Kd as Aβ monomer equivalent

How did the Kd turn out when “Aβ oligomers (AβOs) prepared from Aβ1–42 (from UniProt P05067 672-713) (peptide)” was run?
The Kd was 92 nM.
